Experimental data reported in patent publication US20230117470A1, “SUBSTITUTED PYRAZOLE COMPOUNDS AS TOLL RECEPTOR INHIBITORS” (BRISTOL-MYERS SQUIBB COMPANY, priority 2019, published 2023).

Sequences of proteins named here, by UniProt entry; tags and fusion partners are left off. Residues count along the entry.
UniProt Q9NYK1, 27-1049 limits assumed: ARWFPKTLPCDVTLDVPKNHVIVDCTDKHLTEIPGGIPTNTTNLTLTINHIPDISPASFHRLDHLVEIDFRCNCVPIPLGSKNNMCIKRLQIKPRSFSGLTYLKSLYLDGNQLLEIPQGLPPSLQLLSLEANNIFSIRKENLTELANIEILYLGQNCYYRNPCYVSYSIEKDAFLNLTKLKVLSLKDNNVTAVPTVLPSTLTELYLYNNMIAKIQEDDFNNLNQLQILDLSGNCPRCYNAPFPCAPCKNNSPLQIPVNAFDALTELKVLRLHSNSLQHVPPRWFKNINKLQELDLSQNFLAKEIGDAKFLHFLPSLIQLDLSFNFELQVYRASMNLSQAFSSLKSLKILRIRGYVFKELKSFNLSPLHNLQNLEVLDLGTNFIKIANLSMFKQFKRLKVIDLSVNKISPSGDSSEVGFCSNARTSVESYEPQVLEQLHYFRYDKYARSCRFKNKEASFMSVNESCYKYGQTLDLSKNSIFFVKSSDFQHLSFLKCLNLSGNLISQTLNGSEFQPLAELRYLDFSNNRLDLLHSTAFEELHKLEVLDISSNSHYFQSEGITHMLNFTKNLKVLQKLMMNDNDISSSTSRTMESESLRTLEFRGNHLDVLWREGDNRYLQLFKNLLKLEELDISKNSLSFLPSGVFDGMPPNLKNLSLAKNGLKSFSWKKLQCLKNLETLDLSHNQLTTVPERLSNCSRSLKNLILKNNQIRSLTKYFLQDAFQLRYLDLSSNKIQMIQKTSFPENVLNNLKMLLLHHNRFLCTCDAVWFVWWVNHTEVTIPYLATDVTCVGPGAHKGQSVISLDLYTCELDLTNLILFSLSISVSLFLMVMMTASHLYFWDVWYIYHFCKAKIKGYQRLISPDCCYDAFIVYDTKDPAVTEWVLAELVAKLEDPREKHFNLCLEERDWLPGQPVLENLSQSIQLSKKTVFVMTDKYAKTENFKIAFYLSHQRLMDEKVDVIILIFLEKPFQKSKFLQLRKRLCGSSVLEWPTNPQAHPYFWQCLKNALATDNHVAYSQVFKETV
UniProt Q9NR97, 27-1041 limits assumed: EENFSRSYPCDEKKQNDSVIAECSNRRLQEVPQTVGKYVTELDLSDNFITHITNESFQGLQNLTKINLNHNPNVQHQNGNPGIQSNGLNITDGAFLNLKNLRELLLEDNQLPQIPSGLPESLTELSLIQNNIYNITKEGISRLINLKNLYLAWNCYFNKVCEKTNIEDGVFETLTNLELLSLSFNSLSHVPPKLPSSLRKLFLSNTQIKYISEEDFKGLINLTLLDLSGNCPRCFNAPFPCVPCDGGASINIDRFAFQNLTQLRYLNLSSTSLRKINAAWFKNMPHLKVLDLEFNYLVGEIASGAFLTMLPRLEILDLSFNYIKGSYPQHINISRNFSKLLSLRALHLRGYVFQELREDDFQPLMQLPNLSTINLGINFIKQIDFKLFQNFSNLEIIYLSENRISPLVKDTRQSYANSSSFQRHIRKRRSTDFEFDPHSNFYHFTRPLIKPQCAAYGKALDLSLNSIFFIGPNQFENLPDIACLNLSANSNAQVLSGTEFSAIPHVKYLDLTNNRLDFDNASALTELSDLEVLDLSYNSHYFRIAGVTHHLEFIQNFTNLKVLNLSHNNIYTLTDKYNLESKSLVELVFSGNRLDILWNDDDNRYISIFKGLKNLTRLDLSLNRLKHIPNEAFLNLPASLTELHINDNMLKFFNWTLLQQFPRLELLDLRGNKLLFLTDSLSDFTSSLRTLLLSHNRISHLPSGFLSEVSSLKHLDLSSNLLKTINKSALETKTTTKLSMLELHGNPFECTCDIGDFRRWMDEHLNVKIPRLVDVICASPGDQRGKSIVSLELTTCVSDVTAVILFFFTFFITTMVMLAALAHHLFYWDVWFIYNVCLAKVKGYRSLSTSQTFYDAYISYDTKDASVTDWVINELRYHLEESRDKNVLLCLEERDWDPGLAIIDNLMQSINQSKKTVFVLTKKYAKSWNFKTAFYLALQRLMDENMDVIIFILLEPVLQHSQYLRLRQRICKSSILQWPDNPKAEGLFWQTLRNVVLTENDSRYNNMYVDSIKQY
UniProt Q9NR96, 26-1032 limits assumed: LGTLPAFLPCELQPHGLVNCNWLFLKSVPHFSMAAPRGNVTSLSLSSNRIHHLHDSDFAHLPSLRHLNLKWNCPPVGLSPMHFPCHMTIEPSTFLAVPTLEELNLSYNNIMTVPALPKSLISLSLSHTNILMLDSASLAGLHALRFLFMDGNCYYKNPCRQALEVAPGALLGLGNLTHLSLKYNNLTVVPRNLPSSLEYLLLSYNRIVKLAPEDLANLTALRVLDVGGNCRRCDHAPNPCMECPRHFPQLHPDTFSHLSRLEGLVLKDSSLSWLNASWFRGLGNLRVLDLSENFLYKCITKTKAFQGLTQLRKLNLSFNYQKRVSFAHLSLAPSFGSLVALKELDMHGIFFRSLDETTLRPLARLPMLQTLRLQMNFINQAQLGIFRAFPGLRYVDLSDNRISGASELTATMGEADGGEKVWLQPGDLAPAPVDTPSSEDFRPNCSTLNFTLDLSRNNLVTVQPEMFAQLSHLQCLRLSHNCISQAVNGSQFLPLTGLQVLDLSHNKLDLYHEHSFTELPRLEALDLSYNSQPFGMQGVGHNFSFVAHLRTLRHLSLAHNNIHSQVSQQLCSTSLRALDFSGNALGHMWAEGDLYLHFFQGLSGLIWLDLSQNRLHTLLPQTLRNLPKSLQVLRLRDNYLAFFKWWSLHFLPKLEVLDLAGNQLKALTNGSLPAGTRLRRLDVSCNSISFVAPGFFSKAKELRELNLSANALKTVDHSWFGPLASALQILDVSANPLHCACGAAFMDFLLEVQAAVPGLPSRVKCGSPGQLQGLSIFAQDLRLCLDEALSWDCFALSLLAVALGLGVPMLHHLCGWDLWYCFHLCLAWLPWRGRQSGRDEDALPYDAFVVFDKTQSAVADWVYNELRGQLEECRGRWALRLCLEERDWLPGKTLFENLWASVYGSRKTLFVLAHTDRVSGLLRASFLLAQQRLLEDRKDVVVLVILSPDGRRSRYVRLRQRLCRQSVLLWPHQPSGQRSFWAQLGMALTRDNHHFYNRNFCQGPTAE

How the values were obtained:
human TLR7 = human TLR7 (Homo sapiens, UniProt Q9NYK1); experiment: TLR7 inhibition reporter assay (HEK-Blue cells, SEAP reporter, gardiquimod stimulation); conditions: read-out: TLR7 IC50; HEK-Blue cells overexpressing human TLR7, SEAP reporter, gardiquimod 7.5 μM
Procedure: (§1) TLR7/8/9 Inhibition Reporter Assays
(§2) HEK-Blue™-cells (Invivogen) overexpressing human TLR7, TLR8 or TLR9 receptors were used for screening inhibitors of these receptors using an inducible SEAP (secreted embryonic alkaline phosphatase) reporter gene under the control of the IFN-β minimal promoter fused to five NF-κB and AP-1-binding sites. Briefly, cells are seeded into Greiner 384 well plates (15000 cells per well for TLR7, 20,000 for TLR8 and 25,000 for TLR9) and then treated with test compounds in DMSO to yield a final dose response concentration range of 0.05 nM-50 μM. After a 30 minute compound pre-treatment at room temperature, the cells are then stimulated with a TLR7 ligand (gardiquimod at a final concentration of 7.5 μM), TLR8 ligand (R848 at a final concentration of 15.9 μM) or TLR9 ligand (ODN2006 at a final concentration of 5 nM) to activate NF-κB and AP-1 which induce the production of SLA After a 22 hour incubation at 37° C., […], SEAP levels are determined with the addition of HEK-Blue™ Detection reagent (Invivogen), a cell culture medium that allows for detection of SLAP, according to manufacturer's specifications. The percent inhibition is determined as the % reduction in the HEK-Blue signal present in wells treated with agonist plus DMSO alone compared to wells treated with a known inhibitor.

human TLR8 = human TLR8 (Homo sapiens, UniProt Q9NR97); experiment: TLR8 inhibition reporter assay (HEK-Blue cells, SEAP reporter, R848 stimulation); conditions: read-out: TLR8 IC50; HEK-Blue cells overexpressing human TLR8, SEAP reporter, R848 15.9 μM
Procedure: as §1, §2

human TLR9 = human TLR9 (Homo sapiens, UniProt Q9NR96); experiment: TLR9 inhibition reporter assay (HEK-Blue cells, SEAP reporter, ODN2006 stimulation); conditions: read-out: TLR9 IC50; HEK-Blue cells overexpressing human TLR9, SEAP reporter, ODN2006 5 nM
Procedure: as §1, §2

Question: For Cc1cc(-c2[nH]nc(C(=O)NC3CCN(CCS(C)(=O)=O)CC3)c2C(C)C)cn2ncnc12, which IC50 (human TLR7) is on record?
Answer: 2.84 nM

Question: And the IC50 (human TLR8)?
Answer: 1.22 nM

Question: And the IC50 (human TLR9)?
Answer: 14800 nM

Question: What does the source list for COCCN1CCC(c2ccc(-c3n[nH]c(-c4cc(OC)c5ncnn5c4)c3C(C)C)nc2)CC1?
Answer: IC50 (human TLR7): 7.89 nM; IC50 (human TLR8): 6.75 nM; IC50 (human TLR9): 4500 nM

Question: What does the source list for Cc1cc(-c2c(C(C)C)c(C(=O)NC3CCN(C(C)C)CC3)nn2C)cn2ncnc12 [Example 188, 4-isopropyl-N-(1-isopropylpiperidin-4-yl)-1-methyl-5-(8-methyl-[1,2,4]triazolo[1,5-a]pyridin-6-yl)-1H-pyrazole-3-carboxamide]?
Answer: IC50 (human TLR7): 3.35 nM; IC50 (human TLR8): 5.18 nM; IC50 (human TLR9): 10000 nM
